Test results: patent US20040242660A1, “Substituted oxazolidinones for combinational therapy” (priority 2001, published 2004)

Amino acid sequences for entries named in this document (tags omitted). Residues count along the entry.
UniProt P00742, 41-179 partner limits assumed: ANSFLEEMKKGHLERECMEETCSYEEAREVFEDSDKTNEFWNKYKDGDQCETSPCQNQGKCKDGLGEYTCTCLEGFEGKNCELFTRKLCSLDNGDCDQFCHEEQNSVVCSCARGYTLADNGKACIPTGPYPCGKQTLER
UniProt P00742, 235-488 limits assumed: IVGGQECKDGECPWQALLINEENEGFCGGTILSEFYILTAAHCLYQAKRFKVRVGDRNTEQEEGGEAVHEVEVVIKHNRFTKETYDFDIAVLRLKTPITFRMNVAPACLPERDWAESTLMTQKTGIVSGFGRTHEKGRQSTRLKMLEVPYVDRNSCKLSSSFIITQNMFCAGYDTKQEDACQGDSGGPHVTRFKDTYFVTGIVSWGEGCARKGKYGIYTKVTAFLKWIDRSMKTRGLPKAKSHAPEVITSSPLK

Target: human factor Xa (FXa) (Homo sapiens, UniProt P00742)
Assay: Measurement of factor Xa inhibition (chromogenic substrate)
Format: biochemical
Protocol: a.1) Measurement of Factor Xa Inhibition
In this case, factor Xa eliminates p-nitroaniline from the chromogenic substrate.
The test substances were dissolved in various concentrations in DMSO and incubated with human FXa (0.5 nmol/l dissolved in 50 mmol/l tris buffer [C,C,C-tris(hydroxymethyl)-aminomethane], 150 mmol/l NaCl, 0.1% BSA (bovine serum albumine), pH=8,3) at 25° C. for 10 minutes. Pure DMSO serves as control.

In the case of `NC1CCN(c2ccc(N3C[C@H](CNC(=O)c4ccc(Cl)s4)OC3=O)cn2)C1` (stereo partly shown) [Example 52], the IC50 is reported as 190 nM.
